This note sets out measurements from US12667624B2, “GIP derivative, long-acting conjugate thereof, and pharmaceutical composition comprising same” (HANMI PHARM. CO., LTD., priority 2020, dated 2026).

The assay deals with MRL/Ipr mice. Briefly: Vasculitis disease model MRL/Ipr mice: gene expression in renal arteries. The assay is classed as in vivo, mouse. The following applies: abatacept 5.7 mg/kg, conjugate 0.12, 1.05 or 3.16 mg/kg at 2-day intervals, 10th week. The source says: To confirm efficacy of the long-acting GIP conjugate on vasculitis in a disease model, MRL/Ipr mice were used. In the case of the mice, it is known that vasculitis is observed in the large vessels including the aorta and major branches caused by systemic inflammation (Arthritis Rheum. 2003 May; 48(5):1445-51). Therefore, the mice of this type were selected as a vasculitis disease model.
There are a normal mouse control group administered with an excipient, a disease mouse control group administered with an excipient, a control group administered with commercially available abatacept (Orencia, Inc.,) at a concentration of 5.7 mg/kg, and test groups each administered with the long-acting GIP conjugate at a concentration of 0.12 mg/kg, 1.05 mg/kg, or 3.16 mg/kg. The administration of the excipient and the drugs was performed at 2-day intervals, and the experiment was terminated at the 10th week. For use as the long-acting GIP conjugate, the long-acting GIP conjugate (SEQ ID NO: 17) prepared in Example 3 was used.

With abatacept, the “expression of inflammation-related genes MCP-1, IL-1β, IL-6, TNF-α in renal arteries compared to disease model control” value (FIG. 4A) is “significantly reduced”. For the same substance, the “expression of vascular remodeling genes MMP-2 and MMP-9 in renal arteries compared to control groups” value (FIG. 4B) is listed as “unlike the case of abatacept”.
